# Measured values published in PMC8624105 (Viruses, 2021).
# Legend:
# PDZ domain of SNX27 = PDZ domain of SNX27 (human, UniProt Q96L92 43-136); assay: holdup assay; details: one partner purified
# [1] = biological target: T1, PDZ domain of general receptor for phosphoinositides 1-associated scaffold protein (GRASP) (human, UniProt Q7Z6J2 101-190); assay: holdup assay; details: one partner purified
# T1 construct: also called Tamalin
binder,measurement,setting,value
GFQNTDDVQTSF (also called PBM of ACE2) [ACE2 PBM peptide (Biotin-(PEG3)-GFQNTDDVQTSF)],Kd,PDZ domain of SNX27,3 µM
same,Kd,[1],81 µM
